Bioassay records deposited in PubChem BioAssay by Broad Institute.
PGC1a acetyl inh – inhibitors of PGC1a acetylation signal, primary screen, cell-based, U2OS, AlphaScreen, inhibitor mode; AlphaScreen anti-acetyl-lysine; with virally co-expressed GCN5 acetyltransferase; inhibition, % at 15.6 µM; hit rate 0.17% among 350,000; AID 651687, 2012;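 active = every replicate shows inhibition of at least 40%; inconclusive = mean inhibition at least 40% but some replicate below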;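 also: 0% = neutral control wells and 100% = positive control wells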
miR-122 sensor – miR-122 Renilla sensor signal increase in Huh7, primary screen, miR-122 inhibitor project, cell-based, single point, plate reader | Huh7 miR-122 Renilla luciferase sensor, 48 h; neutral wells = 0, positive control = 100 | activation (reporter increase), % at 12.5 µM | hit rate 0.3% among 340,000;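 active = mean replicate activation score at least 90 and every replicate individually at or above 90; inconclusive = only one of the two criteria met; inactive = neither criterion met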;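 also: higher luciferase means less miR-122 activity so hits act as miR-122 inhibitors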
Wnt bcat act – Wnt/beta-catenin pathway activators, primary screen, cell-based, plate reader, single point | Wnt/beta-catenin reporter cell assay, activator | AID 743398, 2014 | activation, % at 9.35 µM | hit rate 1.2% among 300,000; in the data active = activation above about 30%, passing the limit was not always enough; inconclusive = no clear call, values can overlap the other calls;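 also: 0% = neutral control wells and 100% = positive control wells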
MITF TRPM1 inh – inhibitors of MITF-dependent TRPM1 promoter reporter, primary screen, cell-based, SK-MEL-5, single point, luciferase; SK-MEL-5 TRPM1 promoter luciferase, 24 h; inhibition, % at 12.5 µM; hit rate 0.83% among 330,000; AID 488899, 2010;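 active = mean inhibition across replicates of 60% or more, whatever share of single replicates reaches that level; inconclusive = some that reach 60%, reason not given; inactive = mean inhibition across replicates below 60%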
UUG fidelity – alters start codon recognition fidelity in yeast. S. cerevisiae UUG-firefly luciferase reporter, luminescence/redox ratio. activity score, % at 18.7 µM. 0.13% of 350,000 active. AID 602363;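 active = replicate mean at a twofold rise or more, about +100% in these data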;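 also: firefly luciferase made from a UUG start codon reports start codon fidelity; reporter light over untreated wells divided by growth signal over untreated wells; some hits fall short of that in this replicate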
MITF TRPM1 HTS – activators of MITF-driven TRPM1 promoter reporter, primary screen, cell-based, SK-MEL-5, luciferase, single point | SK-MEL-5 TRPM1-promoter luciferase, 24 h; % of positive control, neutral wells = 0 | activation, % at 12.5 µM | hit rate 0.75% among 300,000;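 active = mean activation of at least 80% with every replicate also reaching 80%; inconclusive = mean reaches 80% but some replicate falls short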;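 also: 0% = neutral control wells and 100% = parthenolide positive control wells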
Numbers without * were called inactive; u = inconclusive; x = not tested or not shown; [ ] = remark or other dose. A selection: hits, their analogues and other compounds. The true share with any hit is near 2.1%.

| entry | mol | PGC1a acetyl inh | miR-122 sensor | Wnt bcat act |
| --- | --- | --- | --- | --- |
| 1 | Fc1ccc(CSc2ncnc3c2ncn3C2CCCCO2)cc1 (stereo not given) | x | x | -3.1 |
| 2 | CCNC(=O)C[C@H]1CC[C@H]2[C@H](COc3ccc(NC(=O)Nc4ccccc4C)cc3C(=O)N2C)O1 | 2.0 | 28.5[16.7 µM] | x |
| 3 | C[C@H](CO)N1C[C@H](C)[C@H](CN(C)C(=O)c2ccccn2)Oc2cc(C#CC3CC3)ccc2S1(=O)=O | -10.1 | 1.6[16.7 µM] | x |
| 4 | Cn1cncc1C#Cc1c(C=O)[nH]c2ccccc12 | 7.0 | -1.2 | 3.8 |
| 5 | Cn1cncc1C#Cc1c(C=O)n(C)c2ccccc12 | 5.0 | 3.2 | 0.6 |
| 6 | CC(C)NC(=O)N(C)C[C@@H]1Oc2ncc(-c3ccccc3F)cc2C(=O)N([C@@H](C)CO)C[C@H]1C | -6.0 | -0.8[16.7 µM] | x |
| 7 | COCCNC(=O)CCc1c(C)nc2c(c(C)nn2-c2ccc(C)c(C)c2)c1C | 78.1* | -2.0 | 0.9 |
| 8 | Fc1ccccc1Nc1nc2ccccc2o1 | 34.3 | -7.9 | 0.4 |
| 9 | c1ccc(Nc2nc3ccccc3o2)cc1 | 4.9 | -2.7 | x |
| 10 | COc1cccc(S(=O)(=O)N2CCCCN3[C@H](C2)[C@H](c2ccc(-c4ccccc4)cc2)[C@@H]3CO)c1 | -1.4 | 3.0[16.7 µM] | x |
| 11 | COc1ccc(/C=N/n2cnc3c([nH]c4ccc(F)cc43)c2=O)cc1CN1CCCC1 | 4.8 | 5.7 | -4.0 |
| 12 | COc1ccc2c(c1)[nH]c1c(=O)n(/N=C/c3ccc(OC)c(CN4CCCC4)c3)cnc12 | 4.0 | x | 0.5 |
| 13 | COc1ccc(/C=N/n2cnc3c([nH]c4ccc(C)cc43)c2=O)cc1CN1CCCC1 | 3.5 | 1.6 | -2.9 |
| 14 | COc1ccc(NC(=O)N(C)C[C@H]2OCCCC[C@@H](C)Oc3ccc(NC(=O)NC(C)C)cc3C(=O)N([C@@H](C)CO)C[C@H]2C)cc1 | -1.8 | 1.4[16.7 µM] | x |
| 15 | CCCC(=O)Nc1ccc2c(c1)C(=O)N(C)[C@@H]1CC[C@@H](CC(=O)NCCCN(C)C)O[C@@H]1CO2 | 3.2 | 0.9[16.7 µM] | x |

| entry | MITF TRPM1 inh | UUG fidelity | MITF TRPM1 HTS |
| --- | --- | --- | --- |
| 1 | -76.0 | x | 69.3 |
| 2 | x | 7.1 | x |
| 3 | x | -2.4 | x |
| 4 | 61.8* | -18.3 | -59.5 |
| 5 | -6.2 | -15.3 | 4.6 |
| 6 | x | -1.2 | x |
| 7 | 11.0 | 7.6 | -13.2 |
| 8 | -81.8 | -9.2 | 99.9* |
| 9 | -34.9 | -24.3 | 34.3 |
| 10 | x | 5.8 | x |
| 11 | 86.3* | x | -85.6 |
| 12 | -10.4 | 2.3 | 8.5 |
| 13 | 82.5* | -14.7 | -80.2 |
| 14 | x | 7.0 | x |
| 15 | x | -18.7 | x |

From no. 1 up to 3, copied from above:
| entry | mol | PGC1a acetyl inh | miR-122 sensor | Wnt bcat act |
| --- | --- | --- | --- | --- |
| 1 | Fc1ccc(CSc2ncnc3c2ncn3C2CCCCO2)cc1 (stereo not given) | x | x | -3.1 |
| 2 | CCNC(=O)C[C@H]1CC[C@H]2[C@H](COc3ccc(NC(=O)Nc4ccccc4C)cc3C(=O)N2C)O1 | 2.0 | 28.5[16.7 µM] | x |
| 3 | C[C@H](CO)N1C[C@H](C)[C@H](CN(C)C(=O)c2ccccn2)Oc2cc(C#CC3CC3)ccc2S1(=O)=O | -10.1 | 1.6[16.7 µM] | x |

| entry | MITF TRPM1 inh | UUG fidelity | MITF TRPM1 HTS |
| --- | --- | --- | --- |
| 1 | -76.0 | x | 69.3 |
| 2 | x | 7.1 | x |
| 3 | x | -2.4 | x |

The listing picks up; the 2 compounds before the break are reprinted first.
| entry | mol | PGC1a acetyl inh | miR-122 sensor | Wnt bcat act |
| --- | --- | --- | --- | --- |
| 14 | COc1ccc(NC(=O)N(C)C[C@H]2OCCCC[C@@H](C)Oc3ccc(NC(=O)NC(C)C)cc3C(=O)N([C@@H](C)CO)C[C@H]2C)cc1 | -1.8 | 1.4[16.7 µM] | x |
| 15 | CCCC(=O)Nc1ccc2c(c1)C(=O)N(C)[C@@H]1CC[C@@H](CC(=O)NCCCN(C)C)O[C@@H]1CO2 | 3.2 | 0.9[16.7 µM] | x |
| 16 | CC(C)(C)c1csc(NC(=O)C2=COCCO2)n1 | -6.5 | -1.4 | 52.8* |
| 17 | Cc1ccc(NC(=O)c2ccc3nccnc3c2)c(C)c1 | -16.0 | -3.5 | 7.7 |
| 18 | CC(=O)c1ccc(NC(=O)c2ccc(C)c(Br)c2)cc1 | -8.8 | x | 69.2* |
| 19 | CCCCC(=O)Nc1ccc(C(=O)NNC(=O)c2ccc(C)c(Br)c2)cc1 | 3.4 | 1.9 | -7.9 |
| 20 | Cc1cc(C)c(NC(=O)c2ccc3nccnc3c2)c(C)c1 | 13.2 | -4.0 | -3.0 |
| 21 | Cc1ccc(-c2csc(NC(=O)C3=COCCO3)n2)cc1 | x | x | x |
| 22 | Cc1cc(C(=O)Nc2ccc(Br)cc2)cs1 | x | x | 45.0* |
| 23 | CNS(=O)(=O)c1ccc(NC(=O)c2csc(C)c2)cc1 | x | x | 0.0 |
| 24 | CCCNC(=O)N1C[C@@H](O)COC[C@H]2O[C@H](CC(=O)NCc3ccncn3)CC[C@@H]21 | -6.9 | 2.8[16.7 µM] | x |
| 25 | CCCNC(=O)N1[C@@H](CO)[C@@H]2c3ccccc3N(C(=O)NC(C)C)C[C@@H]21 | 4.9 | -2.8[16.7 µM] | x |
| 26 | CC(C)(C)c1csc(NC(=O)c2ccc3nccnc3c2)n1 | -1.0 | 0.6 | x |
| 27 | O=C(Nc1ccc(Cl)cc1)c1ccc2snnc2c1 | 2.1 | 6.0 | -2.1 |
| 28 | Cc1cc(NC(=O)c2ccc3nccnc3c2)ccc1Br | 6.4 | -3.3 | 66.4* |
| 29 | CC(=O)c1ccc(NC(=O)c2ccc3snnc3c2)cc1 | -6.5 | x | 14.4 |
| 30 | CC(C)(C)c1csc(NC(=O)c2ccncc2)n1 | -4.6 | x | 1.1 |

| entry | MITF TRPM1 inh | UUG fidelity | MITF TRPM1 HTS |
| --- | --- | --- | --- |
| 14 | x | 7.0 | x |
| 15 | x | -18.7 | x |
| 16 | -74.4 | -16.1 | 77.0 |
| 17 | -92.9 | -12.8 | 99.5* |
| 18 | -56.0 | x | 67.8 |
| 19 | -6.4 | -14.4 | -2.7 |
| 20 | -18.6 | -14.3 | 20.8 |
| 21 | -72.4 | x | u |
| 22 | -29.2 | -16.3 | 30.4 |
| 23 | 0.0 | -8.1 | 1.3 |
| 24 | x | x | x |
| 25 | x | 14.8 | x |
| 26 | -115.5 | x | 114.4* |
| 27 | -51.2 | -10.6 | 54.2 |
| 28 | -59.8 | -8.2 | 69.9 |
| 29 | -84.3 | -9.1 | 84.8* |
| 30 | 9.4 | x | -8.4 |

(more compounds)
| entry | mol | PGC1a acetyl inh | miR-122 sensor | Wnt bcat act |
| --- | --- | --- | --- | --- |
| 31 | C[C@H]1CN([C@@H](C)CO)C(=O)c2cc(-c3cccc(C#N)c3)cnc2O[C@H]1CN(C)Cc1ccc(F)cc1 | -2.5 | -1.9[16.7 µM] | x |
| 32 | O=c1c2ccccc2nc(/C=C/c2ccc([N+](=O)[O-])o2)n1CCCO | -47.2 | -80.4 | x |
| 33 | O=c1c2ccccc2nc(/C=C/c2ccc([N+](=O)[O-])cc2)n1CCCO | 13.4 | -3.8 | x |
| 34 | O=C(Nc1ccc2nc(C3CC3)n(Cc3ccccc3)c(=O)c2c1)C1CC1 | 6.8 | 5.1 | 23.9 |
| 35 | CCCNC(=O)Nc1ccc2c(c1)C(=O)N(C)C[C@H](OC)[C@@H](C)CN(C(=O)C1CCOCC1)[C@@H](C)CO2 | 7.1 | x | x |
| 36 | O=C(c1cc2c(s1)-c1ccccc1OC2)N1CCCC1 | x | -3.1 | 55.4* |
| 37 | CC1CCCC(C)N1CCCNC(=O)c1cc2c(s1)-c1ccccc1OC2 (stereo not given) | x | x | -0.3 |
| 38 | C[C@@H]1CCCCO[C@H](CN(C)C(=O)C2CCCCC2)[C@H](C)CN([C@@H](C)CO)C(=O)c2cc(NC(=O)NC3CCCCC3)ccc2O1 | x | 0.7[16.7 µM] | x |
| 39 | C[C@@H]1CCCCO[C@@H](CN(C)C(=O)CCCN(C)C)[C@@H](C)CN([C@@H](C)CO)C(=O)c2cc(NS(=O)(=O)c3ccccc3)ccc2O1 | 7.5 | 4.8[16.7 µM] | x |
| 40 | CN(C)C(=O)c1ccc(N=Nc2c(O)c3ccccc3[nH]c2=O)cc1 | 3.5 | 3.0 | 26.5 |
| 41 | O=C(N=Nc1c(O)[nH]c2ccccc12)c1cccs1 | x | x | 34.9* |
| 42 | O=C(O)c1ccc(N=Nc2c(O)[nH]c3ccccc23)cc1 | 48.9* | 1.0 | -8.2 |
| 43 | C[C@@H]1CN([C@@H](C)CO)C(=O)c2cc(NS(=O)(=O)c3cn(C)cn3)ccc2O[C@@H]1CN(C)C(=O)Nc1ccc(F)cc1 | -26.6 | -1.9[16.7 µM] | x |
| 44 | C[C@@H]1CN([C@H](C)CO)C(=O)c2ccccc2-c2ccccc2CO[C@H]1CN(C)C(=O)[C@@H](Cc1ccccc1)N(C)C | 3.7 | x | x |
| 45 | CCOc1ccc(N2CC(C(=O)Nc3ccc(S(=O)(=O)NCC4CCCO4)cc3)CC2=O)cc1 (stereo not given) | 56.2* | 2.6 | 0.4 |
| 46 | C[C@@H]1CN([C@H](C)CO)C(=O)c2cc(NC(=O)Nc3ccc4c(c3)OCO4)ccc2O[C@H]1CN(C)Cc1ccc(C(F)(F)F)cc1 | 1.3 | -6.9[16.7 µM] | x |

| entry | MITF TRPM1 inh | UUG fidelity | MITF TRPM1 HTS |
| --- | --- | --- | --- |
| 31 | x | x | x |
| 32 | 97.8* | -2.8 | -97.2 |
| 33 | 6.4 | -0.5 | -9.0 |
| 34 | -120.3 | x | 114.9* |
| 35 | x | -7.8 | x |
| 36 | -33.7 | 8.9 | 34.4 |
| 37 | 61.4* | -25.6 | -61.3 |
| 38 | x | 9.5 | x |
| 39 | x | 20.7 | x |
| 40 | 3.7 | -16.4 | 0.4 |
| 41 | -14.0 | x | 15.6 |
| 42 | -3.0 | -30.2 | 5.6 |
| 43 | x | x | x |
| 44 | x | x | x |
| 45 | 15.0 | 5.8 | -14.0 |
| 46 | x | 9.3 | x |
